Laboratory results from ChEMBL document CHEMBL1143388 (Bioorg Med Chem, 2009).

Protein sequences, listed by entry. Tags and fused reporters are not part of them. Lines headed by an entry give the natural chain unless they say otherwise; changes in a name come on top.
UniProt P41145: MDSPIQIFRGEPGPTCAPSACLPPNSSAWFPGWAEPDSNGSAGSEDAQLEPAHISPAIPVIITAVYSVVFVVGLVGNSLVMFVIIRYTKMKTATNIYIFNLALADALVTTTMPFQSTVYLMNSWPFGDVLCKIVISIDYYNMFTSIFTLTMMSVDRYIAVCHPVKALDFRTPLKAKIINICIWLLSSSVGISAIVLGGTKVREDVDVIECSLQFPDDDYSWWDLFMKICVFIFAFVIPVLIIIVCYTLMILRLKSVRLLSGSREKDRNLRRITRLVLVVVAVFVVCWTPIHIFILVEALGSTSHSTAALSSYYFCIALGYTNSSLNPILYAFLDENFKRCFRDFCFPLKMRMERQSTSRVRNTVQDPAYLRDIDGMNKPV

Target: Kappa-type opioid receptor (Homo sapiens, UniProt P41145)
Test: Agonist activity at human KOPR expressed in CHO cells assessed as enhancement of [35S]GTPgammaS binding at 10 uM relative to U50488
Type: functional, cell-based

CN(C(=O)Cc1ccc(Cl)c(Cl)c1)C1CCCCC1N1CCCC1 (stereo unspecified)
Emax: 100%
